Results taken from ChEMBL document CHEMBL1124682, “Quaternary salts of 2-[(hydroxyimino)methyl]imidazole. 3. Synthesis and evaluation of (alkenyloxy)-, (alkynyloxy)-, and (aralkyloxy)methyl quaternarized 2-[(hydroxyimino)methyl]-1-alkylimidazolium halides as reactivators and therapy for soman intoxication” (1989).

Legend:
[1] = Ionization constant (pKa)
[2] = Partition coefficient (logD7.6); conditions: octanol/water, pH 7.6

For `C#CC(C)C(C)OC[n+]1ccn(C)c1/C=N/O.[Cl-]` (stereo not given), the pKa [1] was 8 and the logD [2] was -1.55.

Work on `C#CCCCC[n+]1ccc(/C=N/O)cc1.[Cl-]` yielded a pKa [1] of 8.36 and a logD [2] of -2.32.

`C=C=CCOC[n+]1ccn(C)c1/C=N/O.[Cl-]` showed a pKa [1] of 8.03.

Work on `CCC(CC#Cc1ccccc1)OC[n+]1ccn(C)c1/C=N/O.[Cl-]` (stereo not given) yielded a pKa [1] of 8.07 and a logD [2] of 0.21.

For `CC(C)=CCOC[n+]1ccn(C)c1/C=N/O.[Cl-]`, the pKa [1] was 8.04 and the logD [2] was -1.4.

Work on `C#CCCOC[n+]1ccn(C(C)(C)C)c1/C=N/O.[Cl-]` yielded a pKa [1] of 7.84 and a logD [2] of -1.84.

With `Cn1cc[n+](COC/C=C/c2ccccc2)c1/C=N/O.[Cl-]` the pKa [1] was 8.01 and the logD [2] was -0.55.

For `Cn1cc[n+](COCCCCc2ccccc2)c1/C=N/O.[Cl-]`, the pKa [1] was 8.05 and the logD [2] was -0.04.

`Cn1cc[n+](COCc2cccc3c2CCCC3)c1/C=N/O.[Cl-]` gave a pKa [1] of 8.13 and a logD [2] of 0.07.

With `C#CC(C)OC[n+]1ccn(C)c1/C=N/O.[Cl-]` (stereo not given) the pKa [1] was 7.96 and the logD [2] was -2.14.

For `C=CC(C)(C)OC[n+]1ccn(C)c1/C=N/O.[Cl-]`, the pKa [1] was 7.94 and the logD [2] was -1.54.

With `CC(C#Cc1ccccc1)COC[n+]1ccn(C)c1/C=N/O.[Cl-]` (stereo not given) the pKa [1] was 7.99 and the logD [2] was -0.05.

Work on `C#CCCCC[n+]1cn(C)c(/C=N/O)n1.[Cl-]` yielded a pKa [1] of 7.34 and a logD [2] of -1.56.

`C#CCC(CCC)OC[n+]1ccn(C)c1/C=N/O.[Cl-]` (stereo not given) showed a pKa [1] of 7.92 and a logD [2] of -1.17.

For `C#CCCCC[n+]1ccn(C(C)(C)C)c1/C=N/O.[Cl-]`, the pKa [1] was 8.06 and the logD [2] was -1.42.

In the case of `C=C(C)COC[n+]1ccn(C)c1/C=N/O.[Cl-]`, the pKa [1] is reported as 7.99 and the logD [2] is reported as -1.83.

Work on `C#CCC(C)OC[n+]1ccn(C)c1/C=N/O.[Cl-]` (stereo not given) yielded a pKa [1] of 8.03 and a logD [2] of -2.1.

With `C#CCCCC[n+]1ccn(C)c1/C=N/O.[Cl-]` the pKa [1] was 8.18 and the logD [2] was -2.02.

Work on `CCCC(OC[n+]1ccn(C)c1/C=N/O)c1ccccc1.[Cl-]` (stereo not given) yielded a pKa [1] of 8.03 and a logD [2] of -0.13.

With `C#CCC(OC[n+]1ccn(C)c1/C=N/O)c1ccccc1.[Cl-]` (stereo not given) the pKa [1] was 7.99 and the logD [2] was -1.05.

For `C#CC(CCC)OC[n+]1ccn(C)c1/C=N/O.[Cl-]` (stereo not given), the pKa [1] was 8.02 and the logD [2] was -1.1.

With `C/C=C\COC[n+]1ccn(C)c1/C=N/O.[Cl-]` the pKa [1] was 8.04 and the logD [2] was -1.93.

In the case of `Cn1cc[n+](COCc2ccc(C(F)(F)F)cc2)c1/C=N/O.[Cl-]`, the pKa [1] is reported as 8.06 and the logD [2] is reported as -0.18.

For `CC/C=C/CCOC[n+]1ccn(C)c1/C=N/O.[Cl-]`, the pKa [1] was 7.99 and the logD [2] was -0.76.

Work on `Cn1cc[n+](COC(c2ccccc2)C2CCCC2)c1/C=N/O.[Cl-]` (stereo not given) yielded a pKa [1] of 8.03 and a logD [2] of 0.38.

Molecule `C#CC(CC)OC[n+]1ccn(C)c1/C=N/O.[Cl-]` (stereo not given) has a pKa [1] of 7.99 and a logD [2] of -1.49.

`C=CCCOC[n+]1ccn(C)c1/C=N/O.[Cl-]` showed a pKa [1] of 7.97 and a logD [2] of -1.84.

With `C=C(C)CC(OC[n+]1ccn(C)c1/C=N/O)C(=C)C.[Cl-]` (stereo not given) the pKa [1] was 7.91 and the logD [2] was -0.62.

Molecule `Cn1cc[n+](COCc2ccc(F)cc2)c1/C=N/O.[Cl-]` has a pKa [1] of 7.98 and a logD [2] of -1.12.

`C/C=C/COC[n+]1ccn(C)c1/C=N/O.[Cl-]` gave a pKa [1] of 8.07 and a logD [2] of -1.54.

`CC#CC(C)(C)OC[n+]1ccn(C)c1/C=N/O.[Cl-]` gave a pKa [1] of 7.96 and a logD [2] of -1.36.

Work on `CC#CC(C)OC[n+]1ccn(C)c1/C=N/O.[Cl-]` (stereo not given) yielded a pKa [1] of 8.03 and a logD [2] of -1.74.

Work on `C=CC(CCC)OC[n+]1ccn(C)c1/C=N/O.[Cl-]` (stereo not given) yielded a pKa [1] of 7.99 and a logD [2] of -0.87.

`C#CCCOC[n+]1ccc(/C=N/O)cc1.[Cl-]` showed a pKa [1] of 8.18 and a logD [2] of -2.72.

In the case of `Cn1cc[n+](COC/C=C/C(C)(C)C)c1/C=N/O.[Cl-]`, the pKa [1] is reported as 8.04 and the logD [2] is reported as -0.47.

`C#CCCCC[n+]1ccn(COC)c1/C=N/O.[Cl-]` showed a pKa [1] of 8.23 and a logD [2] of -1.71.

Molecule `C=C(C)CCOC[n+]1ccn(C)c1/C=N/O.[Cl-]` has a pKa [1] of 8.03 and a logD [2] of -1.41.

For `C#CCCCC[n+]1ccccc1/C=N/O.[Cl-]`, the pKa [1] was 7.93 and the logD [2] was -1.94.

`CCC/C=C/COC[n+]1ccn(C)c1/C=N/O.[Cl-]` showed a pKa [1] of 8 and a logD [2] of -0.7.

Work on `C=CCOC[n+]1ccn(C)c1/C=N/O.[Cl-]` yielded a pKa [1] of 8.04 and a logD [2] of -2.5.

In the case of `C#CC1CCCCC1OC[n+]1ccn(C)c1/C=N/O.[Cl-]` (stereo not given), the pKa [1] is reported as 8.03 and the logD [2] is reported as -1.7.

In the case of `C#CCCOC[n+]1ccn(C)c1/C=N/O.[Cl-]`, the pKa [1] is reported as 7.99 and the logD [2] is reported as -2.36.

Molecule `CCC(C#Cc1ccccc1)OC[n+]1ccn(C)c1/C=N/O.[Cl-]` (stereo not given) has a pKa [1] of 8.06 and a logD [2] of 0.31.
